Assay results from ChEMBL document CHEMBL1128801, “Synthesis and biological evaluation of 14-alkoxymorphinans.12.1 A phenethyl analogue of the -selective opioid receptor antagonist cyprodime” (Bioorg Med Chem Lett, 1995).

Key:
[1] = species on record: Cavia porcellus; assay: In vitro evaluation of antagonistic activity induced by naloxone in guinea-pig ileum myenteric plexus preparation (GPI)
[2] = species on record: Mus musculus; assay: In vitro evaluation of antagonist activity induced by naloxone on mouse vas deferens preparation

CN(C(=O)Cc1ccccc1)[C@H]1CC[C@@]2(CCCO2)C[C@@H]1N1CCCC1 showed a Ke [1] of 9 nM and a Ke [2] of 20.4 nM.
